Results from paper PMC6177136, “Hybrid topoisomerase I and HDAC inhibitors as dual action anticancer agents” (PLoS ONE, 2018).

Test system: A2780-Dx
Experiment: Cytotoxicity assay (SRB, 72 h) A2780-Dx
Type: cell-based, Human
Settings: A2780-Dx versus A2780

Compound: CCc1c2c(nc3ccc(OC(=O)N4CCC(N5CCCCC5)CC4)cc13)-c1cc3c(c(=O)n1C2)COC(=O)[C@]3(O)CC [Irinotecan]
- RI (Resistance Index): 5.3
